# Values of other authors in patent US20110262395A1, “SENSORY RECEPTORS FOR CHRONIC FATIGUE AND PAIN AND USES THEREOF” (UNIVERSITY OF UTAH RESEARCH FOUNDATION, priority 2008, published 2011).
# Amino acid sequences for entries named in this document (tags omitted). A change or cut given only in a name is not applied to a line headed by its entry.
# UniProt Q93086: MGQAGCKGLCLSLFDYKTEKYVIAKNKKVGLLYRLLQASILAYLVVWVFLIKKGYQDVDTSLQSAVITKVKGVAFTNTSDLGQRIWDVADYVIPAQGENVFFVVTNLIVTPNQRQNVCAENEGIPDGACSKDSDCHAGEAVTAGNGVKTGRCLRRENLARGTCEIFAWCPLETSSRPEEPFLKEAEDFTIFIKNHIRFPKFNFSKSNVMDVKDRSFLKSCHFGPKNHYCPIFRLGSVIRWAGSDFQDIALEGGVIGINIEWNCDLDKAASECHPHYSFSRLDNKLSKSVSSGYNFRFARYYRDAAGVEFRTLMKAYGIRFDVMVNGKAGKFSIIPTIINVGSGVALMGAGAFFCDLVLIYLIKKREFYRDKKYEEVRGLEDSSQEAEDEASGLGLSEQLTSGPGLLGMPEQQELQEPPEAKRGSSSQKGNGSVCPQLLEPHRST
# Experiments:
# P2X5 receptors = P2X5 receptors (Homo sapiens, UniProt Q93086); settings: cited from earlier work
# mouse P2X4 receptors = target: T1, mouse P2X4 receptors (Mus musculus, UniProt Q9JJX6); settings: cited from earlier work
# T1 sequence (Q9JJX6 1-388): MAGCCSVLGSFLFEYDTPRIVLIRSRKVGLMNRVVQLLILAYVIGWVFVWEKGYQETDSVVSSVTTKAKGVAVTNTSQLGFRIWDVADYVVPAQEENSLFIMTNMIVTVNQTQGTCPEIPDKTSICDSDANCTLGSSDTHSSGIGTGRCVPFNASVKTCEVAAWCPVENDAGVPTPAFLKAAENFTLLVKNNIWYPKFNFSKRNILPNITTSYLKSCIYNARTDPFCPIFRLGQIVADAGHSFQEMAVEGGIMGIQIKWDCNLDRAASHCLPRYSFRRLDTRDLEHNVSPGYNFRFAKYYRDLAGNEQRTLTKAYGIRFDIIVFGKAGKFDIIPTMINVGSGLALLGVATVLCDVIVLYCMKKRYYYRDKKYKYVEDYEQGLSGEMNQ
structure (smiles),measurement,setting,value
Cc1nc(N=Nc2ccc(S(=O)(=O)O)cc2S(=O)(=O)O)c(COP(=O)(O)O)c(C=O)c1O [PPADS],IC50,P2X5 receptors,0.2 µM
same,IC50,mouse P2X4 receptors,25 µM
